Laboratory results from patent US20240349732A1 (IMPETUS AGRICULTURE, published 2024).

T1: 2Aa/1F/2Aa chimera (domains I and III of Cry2Aa, domain II of Cry1F) (biotin-labeled)
T1 chain: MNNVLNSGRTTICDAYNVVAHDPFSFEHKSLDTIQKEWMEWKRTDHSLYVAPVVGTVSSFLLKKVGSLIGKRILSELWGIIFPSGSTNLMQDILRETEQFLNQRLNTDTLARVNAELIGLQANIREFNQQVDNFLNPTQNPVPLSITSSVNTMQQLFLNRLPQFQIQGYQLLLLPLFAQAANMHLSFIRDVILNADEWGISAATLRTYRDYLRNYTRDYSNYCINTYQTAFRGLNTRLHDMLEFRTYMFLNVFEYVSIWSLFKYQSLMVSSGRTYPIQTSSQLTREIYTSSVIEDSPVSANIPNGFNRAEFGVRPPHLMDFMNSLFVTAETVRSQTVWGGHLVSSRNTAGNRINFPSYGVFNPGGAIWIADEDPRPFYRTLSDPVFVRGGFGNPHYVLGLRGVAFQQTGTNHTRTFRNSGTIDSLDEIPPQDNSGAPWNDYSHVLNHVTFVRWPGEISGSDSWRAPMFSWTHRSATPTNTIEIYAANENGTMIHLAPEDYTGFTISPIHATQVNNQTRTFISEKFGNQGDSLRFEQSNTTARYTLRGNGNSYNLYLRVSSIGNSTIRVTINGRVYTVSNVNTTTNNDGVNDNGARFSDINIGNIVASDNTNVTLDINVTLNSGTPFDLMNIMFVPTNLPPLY

B1: Cry1F monospecific nanobody #51 (VHH)
VHH: QVQLQESGGGLVQAGDSLRLSCAASEQSFNSEIMGWFRQAPGKEREFVAAITYSGSITKYADSAKGRFTISRDNAKNTVYLQMNSLNPEDTALYYCALNKGGLYTDYRSWATYDYRGQGTQVTVSS
B2: Cry1F monospecific nanobody #7 (VHH)
VHH: QVQLQESGGGSVQPGGSLKLSCAASGFTFSNYAMSWVRQAPGKGLEWVSGINAGGDTTNYADSVKDRFTISRDNAKNTLYLQMNSLKPEDTAIYYCLKLETSVVPSSSYYRNRGSRGQGTQVTVSS

Target: T1, 2Aa/1F/2Aa chimera (domains I and III …)
Test: ELISA, nanobody coated, biotinylated 2Aa/1F/2Aa chimera in solution

Row | Binder | binding result
1 | B1 | binds
2 | B2 | binds
